Assay results as given in US9303088B2, “Detecting and treating breast cancer resistance to EGFR inhibitors” (The Regents of the University of California, priority 2009, dated 2016).

Tested on: FAM83A overexpressing T4-2 cells
Experiment: Phenotypic reversion of FAM83A-overexpressing T4-2 cells in 3D lrECM with inhibitors
Type: cell-based, human
Conditions: FIG. 17C

## COc1cc2ncnc(Nc3ccc(F)c(Cl)c3)c2cc1OCCCN1CCOCC1 [gefitinib]
  structure of FAM83A-overexpressing T4-2 cells in presence of EGFR inhibitor: maintained disorganized structures
